Laboratory results reported in patent publication US10465009B2, “BCMA antigen binding proteins” (Amgen Inc., priority 2012, dated 2019).
Entries after “also recorded” stand apart in the source; their conditions may differ.

T1: BCMA on H929, RPMI 8226, OPM2, MM1S, U266, MM1R, RAMOS and EW36 cells (Homo sapiens, UniProt Q02223, N81S)
T1 construct: endogenous in cells; host or cells: H929, RPMI 8226, OPM2, MM1S, U266, MM1R, RAMOS, EW36
T1 sequence (Q02223 1-184 N81S): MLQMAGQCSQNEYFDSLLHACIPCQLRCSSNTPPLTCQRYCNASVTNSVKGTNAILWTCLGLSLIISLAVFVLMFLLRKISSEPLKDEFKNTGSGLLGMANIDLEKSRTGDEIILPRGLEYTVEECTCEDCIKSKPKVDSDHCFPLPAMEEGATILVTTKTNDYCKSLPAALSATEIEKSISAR


What was measured:
[1] = target: T1, BCMA on H929, RPMI 8226, OPM2, MM1S, U266, MM1R, RAMOS and EW36 cells; assay: FACS binding of Dy649-labelled antibody to myeloma and B-cell lines
Procedure: Approximately 10 to 40×10^6 of cells were resuspended in a staining solution (2% goat serum, 1% rabbit serum, 0.02% azide in PBS) and aliquoted into round-bottom, 96-well plate (Corning Incorp., Acton, Mass.) as per the experiment design. The cells were incubated at 4 degrees celsius for 30 minutes to block non-specific sites. The antibodies were titrated into the staining solution. The cells were rinsed in a rinse solution (PBS+0.02% azide) by resuspending the cells in 200 ul/well. The cells were centrifuged at 1500 rpm at 4 degrees celsius for 7 minutes. The rinse solution was removed and the rinse step was repeated. […] The cells/antibodies were rinsed as described above to remove excess/unbound antibody. After the last rinse, the cells were resuspended in 200 ul of rinse solution with a drop of staining solution added to keep the cells from aggregating.

MM1S = assay: CellTiter-Glo Luminescent Cell Viability Assay, MM1S; assay type: cell-based, human
Procedure: The ADCs were tested for the ability to target and kill BCMA-expressing myeloma cells. The CellTiter-Glo® Luminescent Cell Viability Assay is a homogeneous method to determine the number of viable cells in culture based on quantitation of the ATP present, which signals the presence of metabolically active cells. The CellTiter-Glo® Assay is applicable to cytotoxicity assays (see http://www.promega.com/products/cell-health-assays/cell-viability-assays/celltiterglo-luminescent-cell-viability-assay/ for more information). The cell viability assay was used to assess the relative killing capacity of various ADCs on various multiple myeloma cell lines and B-cell lines. […] Luminescence was read on an EnVision™ Multilabel reader (PerkinElmer) or Analyst HT plate reader (LJL Biosciences). The data was analyzed and graphed using GraphPad Prism™ to determine the relative efficacy of the ADCs on various cancer cell lines.
The 2A1CV5-MCC-DM1, 32B5-MCC-DM1 and 29C12-MCC-DM1 ADCs were tested for the ability to target and kill BCMA-expressing myeloma cells (H929). The CellTiter-Glo® Luminescent Cell Viability Assay is a homogeneous method to determine the number of viable cells in culture based on quantitation of the ATP present, which signals the presence of metabolically active cells. […] Luminescence was read on an EnVision™ Multilabel reader (PerkinElmer) or Analyst HT plate reader (LJL Biosciences). […]

Molecule	binding to BCMA on myeloma cell lines and B-cell lines [1]	Cell line killed by BCMA ADC (MM1S)
2A1: parental fully human anti-huBCMA mAb, Vh SEQ ID NO:214, Vl SEQ ID NO:248; heavy chain SEQ ID NO:287, light chain 288 (antibody) heavy: EVQLVESGGGLVKPGRSLRLSCTASGFTFGDYALSWFRQAPGKGLEWVGVSRSKAYGGTTDYAASVKGRFTISRDDSKSFAYLQMNSLKTEDTAVYYCCSSGYSSGWTPFDYWGQGTLVTVSSASTKGPSVFPLAPSSKSTSGGTAALGCLVKDYFPEPVTVSWNSGALTSGVHTFPAVLQSSGLYSLSSVVTVPSSSLGTQTYICNVNHKPSNTKVDKKV[omitted - human IgG1 Fc] light: QSVLTQPPSASGTPGQRVTISCSGSSSNIGSNTVNWYQQLPGTAPKLLIFNYHQRPSGVPDRFSGSKSGSSASLAISGLQSEDEADYYCAAWDDSLNGWVFGGGTELTVLGQPKAAPSVTLFPPSSEELQANKATLVCLISDFYPGAVTVAWKADSSPVKAGVETTTPSKQSNNKYAASSYLSLTPEQWKSHRSYSCQVTHEGSTVEKTVAPTECS	bound BCMA on various myeloma and B-cell lines; also recorded: bound to all myeloma cell lines and B-cell lines	
2A1CV5-MCC-DM1 (conjugate) heavy: EVQLVESGGGLVKPGGSLRLSCAASGFTFGDYALSWFRQAPGKGLEWVGVSRSKAYGGTTDYAASVKGRFTISRDDSKSTAYLQMNSLKTEDTAVYYCASSGYSSGWTPFDYWGQGTLVTVSSASTKGPSVFPLAPSSKSTSGGTAALGCLVKDYFPEPVTVSWNSGALTSGVHTFPAVLQSSGLYSLSSVVTVPSSSLGTQTYICNVNHKPSNTKVDKKV[omitted - human IgG1 Fc] light: QSVLTQPPSASGTPGQRVTISCSGSSSNIGSNTVNWYQQLPGTAPKLLIFNYHQRPSGVPDRFSGSKSGSSASLAISGLQSEDEADYYCAAWDDSLNGWVFGGGTKLTVLGQPKAAPSVTLFPPSSEELQANKATLVCLISDFYPGAVTVAWKADSSPVKAGVETTTPSKQSNNKYAASSYLSLTPEQWKSHRSYSCQVTHEGSTVEKTVAPTECS		Yes
